Laboratory results: US20230263786A1, “MODULATION OF DRUG-DRUG INTERACTIONS OF VADADUSTAT” (Akebia Therapeutics, Inc., priority 2020, published 2023)
Where “and” joins values, the source holds several entries; their conditions need not be identical. Identical values can stand only once.

Sequences of proteins named here, by UniProt entry; tags and fusion partners are left off. A change or cut given only in a name is not applied to a line headed by its entry.
UniProt Q9GZT9: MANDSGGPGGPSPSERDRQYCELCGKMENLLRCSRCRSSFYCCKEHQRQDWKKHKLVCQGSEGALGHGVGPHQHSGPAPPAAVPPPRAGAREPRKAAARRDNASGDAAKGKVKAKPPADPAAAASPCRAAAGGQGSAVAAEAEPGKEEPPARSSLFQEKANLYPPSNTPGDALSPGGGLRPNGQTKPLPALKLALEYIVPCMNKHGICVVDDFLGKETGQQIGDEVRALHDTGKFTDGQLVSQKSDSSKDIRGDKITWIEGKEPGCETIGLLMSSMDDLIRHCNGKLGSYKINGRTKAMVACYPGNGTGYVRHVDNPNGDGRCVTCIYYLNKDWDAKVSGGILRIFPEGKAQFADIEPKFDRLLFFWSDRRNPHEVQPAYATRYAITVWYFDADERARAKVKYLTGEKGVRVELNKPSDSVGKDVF

Experiments:
[1] = Phase I single-dose study, moderate hepatic impairment versus normal hepatic function; format: in vivo, human; conditions: moderate hepatic impairment versus normal liver function
Description: A phase I, open-label, parallel-group, single-dose study was conducted to evaluate the pharmacokinetics (PK) of 450 mg vadadustat administered in adults with moderate hepatic impairment (Child-Pugh Class B) versus those with normal hepatic function. The pharmacokinetic (pK) parameters of Compound 1 were characterized. Safety and tolerability were assessed throughout the study.
Inclusion criteria: participants were male and female adults between 18 and 70 years of age, with either normal hepatic function or moderate hepatic impairment based on the Child-Pugh classification (Child-Pugh Class B [score 7-9]). Moderate hepatic impairment was defined by the presence and severity of elevated bilirubin levels, decreased serum albumin levels, elevated international normalized ratios >2.20, ascites, and hepatic encephalopathy.
Pharmacokinetics. Blood samples for the evaluation of the PK of Compound 1 and its metabolites were collected predose and at 0.5, 1, 1.5, 2, 3, 4, 6, 9, 12, 18, 24, 36, 48, 60, and 72 hours postdose. Urine was collected predose and at 0, 4, 8, 12, 24, 48, and 72 hours post dose to measure Compound 1 excretion and its O-glucuronide metabolite. […] PK parameters Ae0-72, Fe %0-72, and CL, were estimated from the urine concentration-time profiles.
8 subjects with hepatic impairment and 8 matched subjects with normal hepatic function were enrolled in the study. All subjects received a single oral 450-mg dose of vadadustat on Day 1 and were required to fast for at least 10 hours before dosing and for 4 hours after dosing.

[2] = Phase I ferrous sulfate tablet interaction study;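 note: crossover in fasted human subjects with four-day washout between periods, plasma glucuronide metabolite pharmacokinetics, ratios computed as metabolite over parent for AUC and Cmax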
[3] = Phase I calcium acetate interaction study; format: in vivo, human; conditions: vadadustat administered concurrently with calcium acetate
Description: A phase I, open-label, fixed-sequence study was conducted in healthy adult subjects to assess the effect of 1) a single oral dose of calcium acetate on the pharmacokinetics of a single oral dose of vadadustat.
The study included screening (28 days maximum), 9-day treatment period, and a 14-day follow-up period post last dose.
Pharmacokinetics. A predose PK blood sample was collected on Day 1. […] The 48-hour postdose sample was collected before vadadustat administration on Days 3, 5, and 7. The following parameters were calculated and analyzed: AUC0-∞, AUC0-last, Cmax, Tmax, Kel, CIB, Vc/F, and t1/2.
Subjects were dosed approximately at the same designated time on each dosing day, where applicable. Study drugs were administered with approximately 8 ounces (240 mL) of water at room temperature in a seated position. Subjects were instructed to drink the full 8 ounces of water, and not to chew or break the tablets/gelcaps. […]

[4] = Influence of meal on pharmacokinetics, single 450 mg dose; format: in vivo, human; conditions: healthy adult males
Description: The median tmax of this drug was prolonged by postprandial administration for about 1.5 hours as compared with fasting.

[5] = Phase 1 oral iron interaction study, Cohort 1 (after meal): sodium ferrous citrate, ferric citrate hydrate; format: in vivo, human; conditions: for AUC0-∞, Ratio of geometric mean value Combined/alone / Cmax, Ratio of geometric mean value Combined/alone: Compound 1 150 mg, simultaneous
Description: (§1) A phase 1, single-dose, open-label, randomized, crossover study was conducted in 61 healthy adult male subjects to evaluate the pharmacokinetics and safety of Compound 1 when Compound 1 and oral iron or iron-containing phosphate binders were co-administered.
(§2) Cohort 2 and Cohort 3 were confined to the study site for 7 nights and 8 days. • Post-administration tests: performed 3 days after administration of the last dose of the study drug.
(§3) Pharmacokinetics. […] For each evaluation period, the plasma concentration of unchanged Compound 1 will be assayed, and the following parameters calculated by non-compartmental analysis: AUC0-inf, Cmax, AUC0-last, Kel, and t1/2.
In Cohort 1, 21 subjects were further randomized into 3 groups (7 subjects per group) and the evaluation period was divided into 3 periods during the study:
(§4) Administration of vadadustat tablets alone: after fasting for at least 10 hours, subjects would eat breakfast over a period of 10 minutes, then immediately after finishing the meal (5 minutes after finishing the meal), 1 vadadustat tablet (150 mg) would be taken orally with 200 mL of water (extra water may be drunk if more is needed when taking the tablet, and the extra volume would be recorded). After breakfast, subjects would fast until the end of the collection of blood samples at 4 hours after administration of the study drug. Subjects would eat lunch over a period of 20 minutes after blood samples were collected at 4 hours after administration of the study drug. After lunch, subjects would fast until dinner, when they would eat dinner over a period of 20 minutes at 10 hours after administration of the study drug. Subjects would fast from dinner until breakfast the next morning.
as §4, with “and sodium ferrous citrate:” for “alone:”, “mg) and 4 tablets of sodium ferrous citrate (containing 200 mg of iron)” for “mg)”, “tablets,” for “tablet,”
Administration of vadadustat tablets and ferric citrate hydrate: after fasting for at least 10 hours, subjects would eat breakfast over a period of 10 minutes, then immediately after finishing the meal (5 minutes after finishing the meal), 1 vadadustat tablet (150 mg) and 8 tablets of ferric citrate hydrate (containing 2000 mg of ferric citrate) would be taken orally with 200 mL of water (extra water may be drunk if more is needed when taking the tablets, and the extra volume will be recorded). After breakfast, subjects would fast until the end of the collection of blood samples at 4 hours after administration of the study drug. After collection of blood samples at 4 hours after administration of the study drug, subjects would eat lunch over a period of 20 minutes, then immediately after finishing the meal, 8 tablets of ferric citrate hydrate (containing 2000 mg of ferric citrate) would be taken orally with 200 mL of water (extra water may be drunk if more is needed when taking the tablet, and the extra volume would be recorded). […]

[6] = Phase 1 oral iron interaction study, Cohort 3 (fasting): dried ferrous sulfate slow release; format: in vivo, human
Description: as §1, §2, §3
In Cohort 3, 20 subjects were further randomized into 2 groups (10 subjects per group) and the evaluation period was divided into 2 periods during the study:
as §4, with “hours,” for “hours, subjects would eat breakfast over a period of 10 minutes, then immediately after finishing the meal (5 minutes after finishing the meal),”, “Subjects” for “After breakfast, subjects”
as §4, with “and dried ferrous sulfate:” for “alone:”, “hours,” for “hours, subjects would eat breakfast over a period of 10 minutes, then immediately after finishing the meal (5 minutes after finishing the meal),”, “mg) and 2 tablets of dried ferrous sulfate (containing 210 mg of iron)” for “mg)”, “tablets,” for “tablet,”, “Subjects” for “After breakfast, subjects”

[7] = Phase 1 oral iron interaction study, Cohort 2 (before meal): sucroferric oxyhydroxide; format: in vivo, human
Description: as §1, §2, §3
In Cohort 2, 20 subjects were further randomized into 2 groups (10 subjects per group) and the evaluation period was divided into 2 periods during the study:
as §4, with “10 hours and immediately before eating” for “10 hours, subjects would eat”, “breakfast” for “breakfast over a period of 10 minutes, then immediately after finishing the meal”, “minutes before starting” for “minutes after finishing”, “mg) will” for “mg) would”, “of water, then breakfast would be eaten over a period of 10 minutes” for “of water”
Administration of vadadustat tablets and sucroferric oxyhydroxide: after fasting for at least 10 hours and immediately before eating breakfast (5 minutes before starting the meal), subjects would chew and swallow 2 tablets of sucroferric oxyhydroxide (containing 1000 mg of iron), then 1 vadadustat tablet (150 mg) would be taken orally with 200 mL of water, then breakfast would be eaten over a period of 10 minutes (extra water may be drunk if more is needed when taking the tablets, and the extra volume would be recorded). After breakfast, subjects would fast until the end of the collection of blood samples at 4 hours after administration of the study drug. After blood samples were collected at 4 hours after administration of the study drug and immediately before lunch, subjects would chew and swallow 2 tablets of sucroferric oxyhydroxide (containing 1000 mg of iron), then eat lunch over a period of 20 minutes. After lunch, subjects will fast until dinner, and immediately before dinner at 10 hours after administration of the study drug, chew and swallow 2 tablets of sucroferric oxyhydroxide (containing 1000 mg of iron), then eat dinner over a period of 20 minutes. Subjects would fast from dinner until breakfast the next morning.

[8] = target: human PHD2 (Homo sapiens, UniProt Q9GZT9); assay: biochemical
[9] = Compound 1 + Iron/Compound 1, ferrous sulfate 65 mg iron
[10] = Citric acid ferric hydrate tablet 2000 mg as ferric citrate
[11] = Sodium ferrous citrate preparation 200 mg iron
[12] = with ferric citrate hydrate versus Compound 1 alone
[13] = with sodium ferrous citrate versus Compound 1 alone
[14] = Iron sulfate slow release tablet 210 mg iron, Compound 1 150 mg, simultaneous
[15] = with dried ferrous sulfate (slow release) versus Compound 1 alone
[16] = Sucroferric oxyhydroxide chewable tablets 1000 mg iron, Compound 1 150 mg, simultaneous
[17] = with sucroferric oxyhydroxide versus Compound 1 alone

O=C(O)CNC(=O)c1ncc(-c2cccc(Cl)c2)cc1O [Compound 1, {[5-(3-chlorophenyl)-3-hydroxypyridine-2-carbonyl]amino}acetic acid]
AUC0-inf, Geometric LSM Ratio (T/R), Total Compound 1 [1]: 106%
AUC0-inf, Geometric LSM Ratio (T/R), Unbound Compound 1 [1]: 124%
AUC0-last, Geometric LSM Ratio (T/R), Total Compound 1 [1]: 105%
AUC0-last, Geometric LSM Ratio (T/R), Unbound Compound 1 [1]: 124%
Cmax, Geometric LSM Ratio (T/R), Total Compound 1 [1]: 102%
Cmax, Geometric LSM Ratio (T/R), Unbound Compound 1 [1]: 120%
GM Ratio AUC0-inf ([1]; total): 1.06
GM Ratio AUC0-last ([1]; total): 1.05
GM Ratio Cmax ([1]; total): 1.02
AUC(0-inf), Geometric Mean Ratio [2, 9]: 46.3%
AUC(0-t), Geometric Mean Ratio [2, 9]: 46.0%
Cmax, Geometric Mean Ratio [2, 9]: 49.3%
AUC0-∞, Ratio of geometric mean value Combined/alone ([2]; in vivo): 46.0%
Cmax, Ratio of geometric mean value Combined/alone ([2]; in vivo): 49.3%
geometric LS mean ratio of AUC0-∞ to vadadustat alone [3]: 45.00%
Ratio of the geometric mean of AUC0-inf, fed versus fasted [4]: 94%
Ratio of the geometric mean of Cmax, fed versus fasted [4]: 73%
AUC0-∞, Ratio of geometric mean value Combined/alone [5, 10]: 31.10%
Cmax, Ratio of geometric mean value Combined/alone [5, 10]: 36.25%
AUC0-∞, Ratio of geometric mean value Combined/alone [5, 11]: 44.79%
Cmax, Ratio of geometric mean value Combined/alone [5, 11]: 48.66%
AUC(0-last), Geometric Mean Ratio [5, 12]: 31.39%
Kel, Geometric Mean Ratio [5, 12]: 125.00%
t1/2, Geometric Mean Ratio [5, 12]: 80.00%
AUC(0-last), Geometric Mean Ratio [5, 13]: 44.76%
Kel, Geometric Mean Ratio [5, 13]: 99.76%
t1/2, Geometric Mean Ratio [5, 13]: 100.25%
AUC0-∞, Ratio of geometric mean value Combined/alone [6, 14]: 10.31%
Cmax, Ratio of geometric mean value Combined/alone [6, 14]: 8.09%
AUC(0-last), Geometric Mean Ratio [6, 15]: 9.72%
Kel, Geometric Mean Ratio [6, 15]: 107.72%
t1/2, Geometric Mean Ratio [6, 15]: 92.83%
AUC0-∞, Ratio of geometric mean value Combined/alone [7, 16]: 45.99%
Cmax, Ratio of geometric mean value Combined/alone [7, 16]: 57.95%
AUC(0-inf), Geometric Mean Ratio [7, 17]: 46% and 45.99%
AUC(0-last), Geometric Mean Ratio [7, 17]: 46.56%
Cmax, Geometric Mean Ratio [7, 17]: 58% and 57.95%
Kel, Geometric Mean Ratio [7, 17]: 119.41%
t1/2, Geometric Mean Ratio [7, 17]: 83.74%
IC50 [8]: 11.8 nM
